Compound activity from PubChem.
Rtt109 HAT inh: blocks Candida albicans Rtt109/Vps75 acetyltransferase activity; Q5AAJ8; purified Rtt109/Vps75, ThioGlo CoA-SH fluorescence, 4 h; inhibition, % at 34.9 µM; 330,000 compounds, 0.16% hits; AID 540336;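 active = inhibition of at least 50% in every replicate; inconclusive = best replicate reaches 50% inhibition but some replicates fall short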
Yeast UUG start: modulators of start codon recognition fidelity in yeast. S. cerevisiae UUG-firefly luciferase reporter, luminescence/redox ratio. activity score, % at 18.7 µM. 0.13% of 350,000 active. AID 602363;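 active = replicate mean at a twofold rise or more, about +100% in these data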;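 also: firefly luciferase made from a UUG start codon reports start codon fidelity; reporter light over untreated wells divided by growth signal over untreated wells; some hits fall short of that in this replicate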
CDK5 inh: inhibitors of human CDK5/p35 kinase. Q00535+Q15078. Recombinant CDK5/p35, ADP-Glo luminescence, 60 min. inhibition, % at 10 µM. 330,000 compounds, 0.01% hits. AID 488839;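 active = highest replicate inhibition of at least 50% and at least 75% of replicates reaching 50%; inconclusive = only one of the two criteria met; inactive = both criteria failed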
Cneo AK release: Cryptococcus neoformans lysis via adenylate kinase release; C. neoformans lysis, adenylate kinase release luminescence, 4 h; normalised: neutral wells 0, clomiphene wells 100; lysis activity, % at 15 µM; 360,000 compounds, 0.2% hits;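 active = mean lysis activity across replicates of at least 80%, whatever share of replicates individually reach that level; inactive = mean lysis activity below 80%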
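read-out = cell lysis signal | test system = log-phase Cryptococcus neoformans yeast cells | input = cells at 5 × 10^6 per mL | medium = fresh YPD growth medium | signal = luminescent adenylate kinase detection reagent | timing = 4 h at 37 °C static, read 1 h later | dosing = single dose | controls = Clomiphene as positive lysis control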
Statin myotox sup: suppressors of simvastatin-induced myotoxicity in C2C12 myotubes | ATP luminescence, 48 h; scaled: DMSO 0, geranylgeraniol control 100 | rescue of ATP level, % at 7.49 µM | 330,000 compounds, 0.78% hits;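 active = mean ATP rescue above about 67%, or every replicate alone reaching that limit, limit read from the data, passing the limit was not always enough; inconclusive = no clear call, values can overlap the other calls; inactive = mean under the limit and some replicate under it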;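 also: myotubes were challenged with 10 µM simvastatin during compound exposure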
Numbers stand for hits; - = inactive; ? = inconclusive; . = no result given. Rows were chosen to be rich in hits. Some 1% of all compounds tested hit in one or more screens of this group.

SMILES	Rtt109 HAT inh	Yeast UUG start	CDK5 inh	Cneo AK release	Statin myotox sup
Cc1sc2nc(CN3CCN(S(=O)(=O)c4cccc5nonc45)CC3)[nH]c(=O)c2c1C	-	-	-	-	93
O=C(c1ccc(Cl)cc1)N1CCCC(c2ccccc2)=N1	-	-	-	-	80
CCn1c(SCC(=O)Nc2ccc(S(=O)(=O)Nc3ccccn3)cc2)nnc1-c1ccncc1	-	-	-	-	95
O=C(CSc1nnc(-c2ccccc2)n1C1CCCCC1)Nc1ccc(S(=O)(=O)Nc2ccccn2)cc1	-	-	-	-	-
C[C@@H](NC(=O)[C@@H]1[C@@H](CO)[C@@H]2Cn3c(cccc3=O)[C@@H]2N1Cc1cccnc1)c1ccccc1	.	.	.	-	-
C[C@H](CO)N1C[C@H](C)[C@H](CN(C)C(=O)C2CCCCC2)Oc2cc(C#CC3CC3)ccc2S1(=O)=O	.	-	.	.	-
CC(=O)Nc1ccc(S(=O)(=O)Nc2ccc3nc(C)sc3c2)cc1	-	-	-	-	90
CCCN1C(=O)C(O)(C/C(C)=N/O)c2ccccc21 (configuration not stated)	-	-	-	-	125
CCCN1C(=O)C(O)(C2COC(C)(C)CC2=O)c2ccccc21 (configuration not stated)	-	-	-	-	-
CCCN1C(=O)C(O)(C2CC(=O)CC(C)(C)O2)c2ccccc21 (configuration not stated)	-	-	-	126	-
CCCN1C(=O)C(O)(CC(=O)c2cccc(OC)c2)c2ccccc21 (configuration not stated)	-	-	-	-	.
Cc1ccc(S(=O)(=O)N(C)C[C@H]2OCCCC[C@H](C)Oc3ccc(NS(C)(=O)=O)cc3C(=O)N([C@@H](C)CO)C[C@H]2C)cc1	.	-	.	-	.
O=C(COC(=O)c1ccc(Br)o1)Nc1ccc2c(c1)OCCO2	-	-	-	-	-
O=C(COC(=O)CNC(=O)c1ccc(Br)o1)Nc1ccc2c(c1)OCCO2	-	-	-	-	141
O=C(CSCc1cnn(-c2ccccc2)c1-n1cccc1)NCc1cccs1	-	-	-	-	121
Nc1nonc1-c1nc2ccccc2n1Cc1ccc(F)cc1Cl	-	-	-	-	116
O=C(N[C@H]1CC[C@@H](CC(=O)N2CCc3ccccc3C2)O[C@@H]1CO)C1CC1	.	-	.	-	-
COc1ccc(CN(C)C[C@H]2OCCCC[C@@H](C)Oc3ccc(NC(=O)C4CCCCC4)cc3C(=O)N([C@@H](C)CO)C[C@@H]2C)cc1	.	.	.	-	.
CCOc1ccccc1OCC(=O)O	-	-	-	-	-
O=C(O)COc1ccccc1O	60	-	-	-	-
C[C@@H]1CN([C@H](C)CO)C(=O)c2cc(-c3cccnc3)cnc2O[C@@H]1CN(C)Cc1ccc(-c2ccccc2)cc1	.	-	.	-	-
COc1cc2c(cc1OC)C(c1cccs1)CC(=O)N2 (configuration not stated)	-	-	-	-	-
O=C1CC(c2ccncc2)c2cc3c(cc2N1)OCCO3 (configuration not stated)	-	-	-	-	126
O=C1CC(c2ccc3c(c2)OCO3)c2cc3c(cc2N1)OCCO3 (configuration not stated)	-	-	-	-	-
O=C1CC(c2cccs2)c2cc3c(cc2N1)OCO3 (configuration not stated)	-	-	-	-	116
SMILES	Rtt109 HAT inh	Yeast UUG start	CDK5 inh	Cneo AK release	Statin myotox sup
N#C[C@H]1[C@@H](c2ccccc2)[C@H](CO)N1C(=O)c1ccc2c(c1)OCO2	.	.	.	-	-
C[C@H](CO)N1C[C@H](C)[C@@H](CN(C)C(=O)Nc2ccc(C(F)(F)F)cc2)OCCCC[C@H](C)Oc2ccc(NS(C)(=O)=O)cc2C1=O	.	-	.	-	.
COCCn1c(C)cc(C(=O)CSc2nc3ccccc3o2)c1C	-	-	-	-	85
COc1ccc(C(=O)Nc2ccccc2C(=O)NC(Cc2ccc(O)cc2)C(=O)NNC(=O)c2ccccc2Cl)cc1 (configuration not stated)	-	-	-	-	112
Cc1ccc(S(=O)(=O)c2nc(-c3ccccc3)oc2N2CCC(C(N)=O)CC2)cc1	56	-	-	-	-
CCOc1cc(/C=C2\C(=O)N(c3ccc(C(N)=O)cc3)N=C2C)ccc1OC(=O)c1cccs1	-	-	-	-	103
C[C@@H]1CCCCO[C@@H](CN(C)Cc2ccc(C(=O)O)cc2)[C@@H](C)CN([C@H](C)CO)C(=O)c2cc(NS(=O)(=O)c3ccccc3)ccc2O1	.	-	.	-	-
CC(=O)n1cc([C@H]2C=C(C(=O)N3CCCCCCC3)O[C@@H](OCc3ccc(CO)cc3)C2)c2ccccc21	.	-	.	-	.
CC(=O)n1cc([C@@H]2C=C(C(=O)N3CCN(Cc4ccccc4)CC3)O[C@H](OCc3ccc(CO)cc3)C2)c2ccccc21	-	-	-	-	86
CCCN1[C@H](C(=O)N2CCOCC2)[C@@H](CO)[C@@H]2Cn3c(ccc(-c4ccccc4)c3=O)[C@@H]21	.	.	.	-	-
O=S(c1ccc2ccccc2c1)c1cnns1 (configuration not stated)	-	-	-	-	124
CCN1CCN(c2oc(-c3ccco3)nc2C#N)CC1	.	-	.	-	-
N#Cc1nc(-c2ccco2)oc1N1CCCC1	-	.	-	.	112
CCOc1cc(/C=N\Nc2ccc([N+](=O)[O-])cc2)ccc1OCC(=O)Nc1ccc(C)c(C)c1	-	-	-	-	103
COc1cc(/C=N\Nc2ccc([N+](=O)[O-])cc2)ccc1OCC(=O)Nc1ccc(C)c(C)c1	-	-	-	-	-
COc1ccc(CN(C(=O)c2ccco2)c2ccccc2)cc1	-	-	-	-	-
COc1ccc(N(Cc2cc(=O)[nH]c3ccccc23)C(=O)c2ccco2)cc1	-	-	-	-	135
O=C(CSc1nc2[nH]c(=O)cc(O)c2s1)Nc1nncs1	-	-	-	-	-
Cc1csc(NC(=O)CSc2nc3[nH]c(=O)cc(O)c3s2)n1	-	-	-	-	175
Cn1c(-c2sc3cc(C(F)(F)F)cnc3c2-c2ccccn2)n[nH]c1=S	-	-	-	-	.
Cn1c(-c2sc3cc(C(F)(F)F)cnc3c2-c2cccnc2)n[nH]c1=S	-	-	-	-	139
O=C(CN1CCOCC1)NCC[C@H]1CC[C@@H](NC(=O)Nc2ccccc2)[C@@H](CO)O1	.	-	.	-	-
Cc1cc(C)c2c(=O)n(CC(=O)Nc3cccc(Cl)c3C)sc2n1	150	-	-	-	.
Cc1ccc(S(=O)(=O)Nc2ccc3c(c2)CC(=O)N([C@@H](C)CO)C[C@H](C)[C@H](CN(C)S(=O)(=O)c2cccs2)O3)cc1	.	-	.	-	?
Cc1ccc(S(=O)(=O)Nc2ccc3c(c2)CC(=O)N([C@@H](C)CO)C[C@H](C)[C@@H](CN(C)S(=O)(=O)c2cccs2)O3)cc1	.	-	.	-	77
